{
  "source": "patent US10947188B2",
  "about": "“Small molecule ferroptosis inducers” (THE TRUSTEES OF COLUMBIA UNIVERSITY IN THE CITY OF NEW YORK, priority 2016, dated 2021)",
  "key": {"BJeLR": {"system": "BJeLR", "assay": "Modulatory profiling: Alamar Blue viability, lethal compound cotreated with death modulator (EC50, AUC); as to AUC HT.BHA: reference of the scale not given here; as to AUC HT.EGTA: reference of the scale not given here", "type": "cell-based, human", "details": "BJeLR cells, modulatory profile value (AUC)"}, "HT-1080": {"system": "HT-1080", "assay": "Modulatory profiling: Alamar Blue viability, lethal compound cotreated with death modulator (EC50, AUC)", "type": "cell-based", "set-up": "AUC, modulator HT.ALLN / AUC HT.ATA / AUC HT.ActD / AUC HT.BHA / AUC HT.BHT / AUC HT.BocD / AUC HT.CHX / AUC HT.Co2+ / AUC HT.CspA / AUC HT.DPQ / AUC HT.EGTA / AUC HT.Gd3+ / AUC HT.LNAME / AUC HT.Lmim / AUC HT.NAD+ / AUC HT.Nec-1 / AUC HT.Pepstatin / AUC HT.SP600125 / AUC HT.TLCK / AUC HT.U0126: unit not given beside the values"}},
  "data": [
    {"smiles": "O=[N+]([O-])c1ccc(O)c([N+](=O)[O-])c1", "values": [
      {"measurement": "AUC, modulator BJ.Lmin/NAD+", "setting": "BJeLR", "result": 0.07621},
      {"measurement": "AUC HT.ATA", "setting": "HT-1080; HT-1080, modulator ATA", "result": "−0.03893"},
      {"measurement": "AUC HT.ActD", "setting": "HT-1080; HT-1080, modulator ActD", "result": 0.1186},
      {"measurement": "AUC HT.BHA", "setting": "HT-1080; HT-1080, modulator BHA", "result": "−0.1811"},
      {"measurement": "AUC HT.BHT", "setting": "HT-1080; HT-1080, modulator BHT", "result": "−0.1843"},
      {"measurement": "AUC HT.BocD", "setting": "HT-1080; HT-1080, modulator BocD", "result": 0.05041},
      {"measurement": "AUC HT.CHX", "setting": "HT-1080; HT-1080, modulator CHX", "result": 0.2098},
      {"measurement": "AUC HT.Co2+", "setting": "HT-1080; HT-1080, modulator Co2+", "result": 0.04336},
      {"measurement": "AUC HT.CspA", "setting": "HT-1080; HT-1080, modulator CspA", "result": "−0.173"},
      {"measurement": "AUC HT.DPQ", "setting": "HT-1080; HT-1080, modulator DPQ", "result": 0.08157},
      {"measurement": "AUC HT.EGTA", "setting": "HT-1080; HT-1080, modulator EGTA", "result": "−0.096"},
      {"measurement": "AUC HT.Gd3+", "setting": "HT-1080; HT-1080, modulator Gd3+", "result": "−0.02829"},
      {"measurement": "AUC HT.LNAME", "setting": "HT-1080; HT-1080, modulator LNAME", "result": "−0.008859"},
      {"measurement": "AUC HT.Lmim", "setting": "HT-1080; HT-1080, modulator Lmim", "result": 0.02524},
      {"measurement": "AUC HT.NAD+", "setting": "HT-1080; HT-1080, modulator NAD+", "result": 0.1164},
      {"measurement": "AUC HT.NMMA", "setting": "HT-1080; HT-1080, modulator NMMA", "result": 0.01661},
      {"measurement": "AUC HT.Nec-1", "setting": "HT-1080; HT-1080, modulator Nec-1", "result": 0.03763},
      {"measurement": "AUC HT.Pepstatin", "setting": "HT-1080; HT-1080, modulator Pepstatin", "result": 0.01716},
      {"measurement": "AUC HT.SP600125", "setting": "HT-1080; HT-1080, modulator SP600125", "result": "−0.1203"},
      {"measurement": "AUC HT.TLCK", "setting": "HT-1080; HT-1080, modulator TLCK", "result": 0.03577},
      {"measurement": "AUC HT.U0126", "setting": "HT-1080; HT-1080, modulator U0126", "result": "−0.02156"},
      {"measurement": "HT.atoc (AUC)", "setting": "HT-1080; HT-1080, modulator atoc", "result": 0.09944},
      {"measurement": "HT.bCarotene (AUC)", "setting": "HT-1080; HT-1080, modulator bCarotene", "result": "−0.009997"},
      {"measurement": "HT.deferox (AUC)", "setting": "HT-1080; HT-1080, modulator deferox", "result": 0.1114},
      {"measurement": "HT.digoxin (AUC)", "setting": "HT-1080; HT-1080, modulator digoxin", "result": "−0.07133"},
      {"measurement": "HT.trolox (AUC)", "setting": "HT-1080; HT-1080, modulator trolox", "result": 0.03607},
      {"measurement": "HT.zVAD (AUC)", "setting": "HT-1080; HT-1080, modulator zVAD", "result": 0.04233},
      {"measurement": "AUC, modulator HT.ALLN", "setting": "HT-1080; HT-1080 cells, lethal compound cotreated with modulator ALLN, modulatory profile value (AUC)", "result": 0.1147}
    ]}
  ]
}
